Results taken from PubChem BioAssay (EPA / NIEHS).
The list shows a part of the results, in another mix than the full data. Results filed as inconclusive are left out. Activity calls are given as the source filed them. The calls were made as follows, unless noted: active = hit-call score of the fitted dose curve at least 0.9, where 1 is the maximum; inactive = score below 0.9.

Amino acid sequences for entries named in this document (tags omitted).
UniProt P10275, whole entry: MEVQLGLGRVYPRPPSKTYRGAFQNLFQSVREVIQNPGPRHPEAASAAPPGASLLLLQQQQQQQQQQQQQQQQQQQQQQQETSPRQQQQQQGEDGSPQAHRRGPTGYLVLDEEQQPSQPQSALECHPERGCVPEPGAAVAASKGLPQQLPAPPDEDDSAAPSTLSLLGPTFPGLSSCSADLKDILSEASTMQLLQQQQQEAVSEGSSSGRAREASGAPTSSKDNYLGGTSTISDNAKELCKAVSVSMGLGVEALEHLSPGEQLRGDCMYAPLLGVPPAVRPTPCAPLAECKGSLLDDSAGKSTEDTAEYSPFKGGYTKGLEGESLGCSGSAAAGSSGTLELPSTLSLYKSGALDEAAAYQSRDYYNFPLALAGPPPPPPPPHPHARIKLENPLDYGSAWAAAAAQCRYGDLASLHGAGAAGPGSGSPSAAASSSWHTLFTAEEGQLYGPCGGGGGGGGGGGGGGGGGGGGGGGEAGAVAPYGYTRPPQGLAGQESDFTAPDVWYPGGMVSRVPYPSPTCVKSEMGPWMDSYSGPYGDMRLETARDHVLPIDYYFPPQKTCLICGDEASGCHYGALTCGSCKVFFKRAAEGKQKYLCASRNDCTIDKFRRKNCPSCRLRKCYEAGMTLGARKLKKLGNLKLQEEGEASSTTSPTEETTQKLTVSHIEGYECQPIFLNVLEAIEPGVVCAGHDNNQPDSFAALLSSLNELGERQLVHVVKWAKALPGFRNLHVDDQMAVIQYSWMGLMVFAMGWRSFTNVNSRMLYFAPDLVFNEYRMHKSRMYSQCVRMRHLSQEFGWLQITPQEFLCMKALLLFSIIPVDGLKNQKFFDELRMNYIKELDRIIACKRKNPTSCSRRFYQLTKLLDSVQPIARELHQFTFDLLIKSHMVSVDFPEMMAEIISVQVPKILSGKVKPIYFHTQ

How the values were obtained:
[1] = CCTE_Harrill_HTTr_Viability_MCF7: CCTE's 6-hour Cell Viability Assessment for the High-Throughput Transcriptomics (HTTr) Platform, in MCF-7 cells cultured in DMEM + 10% fetal bovine serum, Harrill Lab (AID 2284010)
Summary of the method: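 Propidium iodide exclusion, imaged by high-content analysis, gauged viability after a six-hour exposure across eight concentrations. Cells were MCF-7 grown in DMEM with 10% fetal bovine serum; fits run in both directions against DMSO.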

[2] = CCTE_Harrill_HTTr_Apoptosis_MCF7: CCTE's 6-hour Apoptosis Assessment for the High-Throughput Transcriptomics (HTTr) Platform, in MCF-7 cells cultured in DMEM + 10% fetal bovine serum, Harrill Lab (AID 2284011)
Summary of the method: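 Cells are dosed with test chemicals at eight concentrations and imaged 6 hours later for caspase-3/7 activity using a green fluorogenic detection reagent. Activity is fitted in both directions against DMSO controls.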

[3] = CCTE_Harrill_HTTr_CellCount_MCF7: CCTE's Cell Proliferation Assessment for the High-Throughput Transcriptomics (HTTr) Platform, Harrill Lab (AID 2284012; active = hit-call score of the fitted dose curve at least 0.9, where 1 is the maximum;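 also: cells exposed to compound for six hours; intended direction is loss of nuclei count meaning fewer cells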)
Summary of the method: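 Cell count from high-content imaging of Hoechst-labeled nuclei serves as viability/growth readout. Chemicals were applied to MCF-7 cells in eight concentrations for six hours, with fitting in both directions relative to DMSO.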

[4] = target: Nucleoli Translocation, AR (gene 367) (UniProt P10275); experiment: UPITT_HCI_U2OS_AR_TIF2_Nucleoli_Antagonist: University of Pittsburgh U2OS Androgen Receptor-Transcriptional Intermediary Factor 2 (AR-TIF2) Antagonism High Content Imaging Assay for Nucleoli Translocation (AID 2283997; active = hit-call score of the fitted dose curve at least 0.9, where 1 is the maximum)
Summary of the method: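 Compounds are added at 20 uM final concentration in 0.2% DMSO to U2OS cells carrying AR-RFP and TIF2-GFP fusions. Nucleolar AR-RFP fluorescence is then quantified by automated imaging. Antagonism is fitted positively against DHT baseline.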

[5] = target: Ratio of Nucleoli Translocation and Cytoplasm, AR (gene 367) (UniProt P10275); experiment: UPITT_HCI_U2OS_AR_TIF2_Nucleoli_Cytoplasm_Ratio_Antagonist: University of Pittsburgh U2OS Androgen Receptor-Transcriptional Intermediary Factor 2 (AR-TIF2) Antagonism High Content Imaging Assay for Ratio of Nucleoli Translocation and Cytoplasm (AID 2283999; active = hit-call score of the fitted dose curve at least 0.9, where 1 is the maximum;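 also: antagonists lower the DHT-driven ratio of nucleolar to cytoplasmic red signal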)
Summary of the method: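 High-content imaging of red fluorescence ratio, nucleoli versus cytoplasm, in U2OS expressing AR-RFP and TIF2-GFP, fitted relative to DHT. Compounds tested once at 20 uM final, then 0.195 to 50 uM final in serial dilution.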

[6] = target: Ratio of Nucleoli Translocation and Cytoplasm, AR (gene 367) (UniProt P10275); experiment: UPITT_HCI_U2OS_AR_TIF2_Nucleoli_Cytoplasm_Ratio_Agonist: University of Pittsburgh U2OS Androgen Receptor-Transcriptional Intermediary Factor 2 (AR-TIF2) Agonism High Content Imaging Assay for Ratio of Nucleoli Translocation and Cytoplasm (AID 2284000; active = hit-call score of the fitted dose curve at least 0.9, where 1 is the maximum;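 also: hits raise the red nucleolar to cytoplasm ratio above vehicle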)
Summary of the method: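 Human osteosarcoma U2OS line, AR-RFP plus TIF2-GFP; compounds 0.195–50 uM final, 0.5% DMSO. Readout: nucleolar/cytoplasmic RFP ratio by HCI, positive direction vs DMSO baseline.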

[7] = target: Nucleoli Translocation, AR (gene 367) (UniProt P10275); experiment: UPITT_HCI_U2OS_AR_TIF2_Nucleoli_Agonist: University of Pittsburgh U2OS Androgen Receptor-Transcriptional Intermediary Factor 2 (AR-TIF2) Agonism High Content Imaging Assay for Nucleoli Translocation (AID 2283998; active = hit-call score of the fitted dose curve at least 0.9, where 1 is the maximum)
Summary of the method: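 Red-tagged human androgen receptor co-expressed with GFP-tagged TIF2 serves as the binding reporter. Primary testing used 20 uM final (0.2% DMSO); follow-up dose response covered 0.195 to 50 uM final (0.5% DMSO).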

[8] = CCTE_Shafer_MEA_acute_spike_number: CCTE's Neural Acute Assay for Total Number of Spikes, Shafer Lab (AID 2284008)
Summary of the method: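 Cortical neurons from rat, matured to DIV 13 or 15 on microelectrode arrays, are recorded at 37 C before and during 40-min exposure to 0.03-40 uM compound. Wells need >/= 10 active electrodes.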

[9] = CCTE_Shafer_MEA_acute_firing_rate_mean: CCTE's Neural Acute Assay for Mean Firing Rate, Shafer Lab (AID 2284009);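 also: analyzed for loss of signal so actives lower firing rate relative to DMSO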
Summary of the method: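 Rat cortical neuron cultures matured to DIV 13 or 15, equilibrated 20 min at 37 C, then recorded 40 min for baseline. Compound (0.03-40 uM) added and a further 40 min recorded; percent change in mean firing rate calculated per well.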

[10] = CCTE_Shafer_MEA_acute_burst_number: CCTE's Neural Acute Assay for Single-Electrode Bursts, Shafer Lab (AID 2284013)
Summary of the method: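 Percent change in single-electrode burst number per well, from 40-min recordings taken before and after adding compound (0.03-40 uM) to primary rat cortical neurons on MEA plates at DIV 13 or 15, 37 C.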

[11] = CCTE_Shafer_MEA_acute_burst_duration_mean: CCTE's Neural Acute Assay for Mean Burst Duration, Shafer Lab (AID 2284014);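 also: hits are decreases in mean burst duration relative to DMSO controls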
Summary of the method: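 Rat cortical cultures, DIV 13/15; 40 min baseline, then 40 min with compound (0.03-40 uM), 37 C. Spikes: 300-5000 Hz band-pass, 8x rms threshold. Read-out: % change in mean single-electrode burst duration, DMSO-referenced, loss direction.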

[12] = CCTE_Shafer_MEA_acute_per_burst_spike_number_mean: CCTE's Neural Acute Assay for Average Number of Spikes Per Burst, Shafer Lab (AID 2284015);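 also: hits are decreases in mean spikes per burst versus baseline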
Summary of the method: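 Read-out: percent change in mean spikes per burst, each well's post-exposure 40-min recording versus its own 40-min baseline. Rat cortical cultures, DIV 13 or 15, compounds 0.03-40 uM; DMSO is negative control, loss-of-signal fitting.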

[13] = CCTE_Shafer_MEA_acute_interburst_interval_mean: CCTE's Neural Acute Assay for Mean Interburst Interval, Shafer Lab (AID 2284016);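 also: percent change of mean interburst interval versus each well's own pre-dose baseline; curves fitted for decrease in interburst interval relative to DMSO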
Summary of the method: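 Rat cortical cultures, DIV 13/15; 20 min equilibration, 40 min baseline, compound 0.03-40 uM, 40 min re-recording, 37 C. Spikes detected at 8x rms noise (300-5000 Hz band-pass). Endpoint: % change in interburst interval, fitted in loss direction vs DMSO.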

[14] = CCTE_Shafer_MEA_acute_burst_percentage_mean: CCTE's Neural Acute Assay for Percentage of Spikes in a Burst, Shafer Lab (AID 2284017)
Summary of the method: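 Rat cortical cultures, DIV 13/15, 37 C. Spikes detected at 8x rms noise (300-5000 Hz band-pass). Burst spikes/total spikes averaged across electrodes per well; % change post- vs pre-treatment (40 min each), loss-of-signal fit vs DMSO.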

[15] = CCTE_Shafer_MEA_acute_burst_percentage_std: CCTE's Neural Acute Assay for Standard Deviation of Burst Percentage, Shafer Lab (AID 2284018);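 also: fitted in the negative direction so actives lower burst percentage SD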
Summary of the method: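 Rat primary cortical neurons on 48-well MEAs, DIV 13 or 15, 37 C. 40-min baseline then 40-min recording with compound (0.03-40 uM); well-level SD of per-electrode burst spike percentage, expressed as percent change from baseline.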

[16] = CCTE_Shafer_MEA_acute_per_network_burst_spike_number_mean: CCTE's Neural Acute Assay for Average Number of Spikes in a Network Burst, Shafer Lab (AID 2284019)
Summary of the method: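 Rat cortical cultures, DIV 13/15; spike threshold 8x rms noise, 300-5000 Hz band-pass, 12.5 kHz sampling; wells need >/= 10 active electrodes. Compound 0.03-40 uM, 40 min, 37 C; % change vs own baseline, DMSO negative control.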

[17] = CCTE_Shafer_MEA_acute_per_network_burst_spike_number_std: CCTE's Neural Acute Assay for Standard Deviation of Number of Spikes in a Network Burst, Shafer Lab (AID 2284020);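 also: fitted for decrease in spike-number SD versus DMSO so actives lower it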
Summary of the method: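 Rat cortical cultures, DIV 13/15, 37 C; 20-min stabilisation, 40-min baseline, compound 0.03-40 uM, 40-min re-record. Spikes detected at 8x rms noise (300-5000 Hz band-pass). Readout: % change from baseline in per-burst spike-number SD.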

[18] = CCTE_Shafer_MEA_acute_per_network_burst_electrodes_number_mean: CCTE's Neural Acute Assay for Mean Number of Electrodes in a Network Burst, Shafer Lab (AID 2284021);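 also: curves fitted for decreases only so hits reduce electrodes per burst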
Summary of the method: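 Cultures of rat cortex neurons were exposed on DIV 13 or 15 to compounds at 0.03-40 uM in at least three wells each. Activity over 40 min before and 40 min after exposure at 37 C gave the percent change in electrodes per network burst.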

[19] = CCTE_Shafer_MEA_acute_network_burst_percentage: CCTE's Neural Acute Assay for Percentage of Network Bursts, Shafer Lab (AID 2284022);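 also: rat primary cortical neuron networks on multiwell MEA recorded 40 min; curves fitted for loss so actives lower network burst percentage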
Summary of the method: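 Cortical neurons from rat were grown over microelectrode arrays and used on day 13 or 15 in vitro. Wells with at least 10 active electrodes received test chemical at 0.03-40 uM. Activity during 40 min of exposure was compared with the preceding 40-min baseline.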

[20] = CCTE_Shafer_MEA_acute_cross_correlation_area: CCTE's Neural Acute Assay for Area of Cross Correlation, Shafer Lab (AID 2284024);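 also: area under pooled inter-electrode spike cross-correlation near zero lag as percent change from own baseline; curves fitted for loss of cross-correlation area so actives lower synchrony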
Summary of the method: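 Acute exposure of mature rat cortical networks (day 13 or 15 post-plating) to 0.03-40 uM compound. Spontaneous spiking on MEA, 40 min pre- and post-dose at 37 C.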

Measured: outcome

N#CBr
inactive: [1] | [2] | [3]

Cc1ccc([N+](=O)[O-])c([N+](=O)[O-])c1
inactive: [1] | [2] | [3]

Cc1ccc([N+](=O)[O-])cc1[N+](=O)[O-]
inactive: [1] | [2]

Cc1c([N+](=O)[O-])cccc1[N+](=O)[O-]
inactive: [1] | [2]

O=[N+]([O-])OCC(CO[N+](=O)[O-])(CO[N+](=O)[O-])CO[N+](=O)[O-]
inactive: [4] | [5] | [6] | [1] | [2] | [3]

Cc1cccc([N+](=O)[O-])c1[N+](=O)[O-]
inactive: [4] | [7] | [5] | [6] | [1] | [2] | [3]

C/C1=C2N=C(/C=C3N=C(/C(C)=C4\[N-][C@@](C)([C@@H]5N=C1[C@](C)(CCC(=O)NC[C@@H](C)OP(=O)([O-])O[C@H]1[C@@H](O)[C@@H](n6cnc7cc(C)c(C)cc76)O[C@@H]1CO)[C@H]5CC(N)=O)[C@@](C)(CC(N)=O)[C@@H]4CCC(N)=O)[C@@](C)(CC(N)=O)[C@@H]\3CCC(N)=O)C(C)(C)[C@@H]/2CCC(N)=O.[C-]#N.[Co+3]
inactive: [1] | [2] | [3]

O=[N+]([O-])c1cccc([N+](=O)[O-])c1
inactive: [8] | [9] | [1] | [2] | [3] | [10] | [11] | [12] | [13] | [14] | [15] | [16] | [17] | [18] | [19] | [20]

[NH4+].[O-][Cl+3]([O-])([O-])[O-]
inactive: [1] | [2]

O=[N+]([O-])[O-].[NH4+]
inactive: [1] | [2]

CC(C)OP(C)(=O)OC(C)C
inactive: [8] | [9] | [1] | [2] | [10] | [11] | [12] | [13] | [14] | [15] | [16] | [17] | [18] | [19] | [20]

COP(C)(=O)OC
inactive: [1] | [2] | [3]
